System: Nc1ncnc2c1ncn2[C@@H]1O[C@H](CO)[C@@H](O)[C@H]1O
Experiment: cells, lysate or membranes
Settings: other: TvagENT3 in SUPKO, 50 nM [^3H]-adenosine, n = 3

With TvagENT3 (Trichomonas vaginalis G3) the Km was 0.90 ± 0.13 µM.

Source: PMC9331716, “Nucleoside Transport and Nucleobase Uptake Null Mutants in Leishmania mexicana for the Routine Expression and Characterization of Purine and Pyrimidine Transporters” (International Journal of Molecular Sciences, 2022)
